This passage reports outcome and AC50 results from PubChem BioAssay (EPA / NIEHS).

Sequences of proteins named here, by UniProt entry; tags and fusion partners are left off.
UniProt P49327, whole entry: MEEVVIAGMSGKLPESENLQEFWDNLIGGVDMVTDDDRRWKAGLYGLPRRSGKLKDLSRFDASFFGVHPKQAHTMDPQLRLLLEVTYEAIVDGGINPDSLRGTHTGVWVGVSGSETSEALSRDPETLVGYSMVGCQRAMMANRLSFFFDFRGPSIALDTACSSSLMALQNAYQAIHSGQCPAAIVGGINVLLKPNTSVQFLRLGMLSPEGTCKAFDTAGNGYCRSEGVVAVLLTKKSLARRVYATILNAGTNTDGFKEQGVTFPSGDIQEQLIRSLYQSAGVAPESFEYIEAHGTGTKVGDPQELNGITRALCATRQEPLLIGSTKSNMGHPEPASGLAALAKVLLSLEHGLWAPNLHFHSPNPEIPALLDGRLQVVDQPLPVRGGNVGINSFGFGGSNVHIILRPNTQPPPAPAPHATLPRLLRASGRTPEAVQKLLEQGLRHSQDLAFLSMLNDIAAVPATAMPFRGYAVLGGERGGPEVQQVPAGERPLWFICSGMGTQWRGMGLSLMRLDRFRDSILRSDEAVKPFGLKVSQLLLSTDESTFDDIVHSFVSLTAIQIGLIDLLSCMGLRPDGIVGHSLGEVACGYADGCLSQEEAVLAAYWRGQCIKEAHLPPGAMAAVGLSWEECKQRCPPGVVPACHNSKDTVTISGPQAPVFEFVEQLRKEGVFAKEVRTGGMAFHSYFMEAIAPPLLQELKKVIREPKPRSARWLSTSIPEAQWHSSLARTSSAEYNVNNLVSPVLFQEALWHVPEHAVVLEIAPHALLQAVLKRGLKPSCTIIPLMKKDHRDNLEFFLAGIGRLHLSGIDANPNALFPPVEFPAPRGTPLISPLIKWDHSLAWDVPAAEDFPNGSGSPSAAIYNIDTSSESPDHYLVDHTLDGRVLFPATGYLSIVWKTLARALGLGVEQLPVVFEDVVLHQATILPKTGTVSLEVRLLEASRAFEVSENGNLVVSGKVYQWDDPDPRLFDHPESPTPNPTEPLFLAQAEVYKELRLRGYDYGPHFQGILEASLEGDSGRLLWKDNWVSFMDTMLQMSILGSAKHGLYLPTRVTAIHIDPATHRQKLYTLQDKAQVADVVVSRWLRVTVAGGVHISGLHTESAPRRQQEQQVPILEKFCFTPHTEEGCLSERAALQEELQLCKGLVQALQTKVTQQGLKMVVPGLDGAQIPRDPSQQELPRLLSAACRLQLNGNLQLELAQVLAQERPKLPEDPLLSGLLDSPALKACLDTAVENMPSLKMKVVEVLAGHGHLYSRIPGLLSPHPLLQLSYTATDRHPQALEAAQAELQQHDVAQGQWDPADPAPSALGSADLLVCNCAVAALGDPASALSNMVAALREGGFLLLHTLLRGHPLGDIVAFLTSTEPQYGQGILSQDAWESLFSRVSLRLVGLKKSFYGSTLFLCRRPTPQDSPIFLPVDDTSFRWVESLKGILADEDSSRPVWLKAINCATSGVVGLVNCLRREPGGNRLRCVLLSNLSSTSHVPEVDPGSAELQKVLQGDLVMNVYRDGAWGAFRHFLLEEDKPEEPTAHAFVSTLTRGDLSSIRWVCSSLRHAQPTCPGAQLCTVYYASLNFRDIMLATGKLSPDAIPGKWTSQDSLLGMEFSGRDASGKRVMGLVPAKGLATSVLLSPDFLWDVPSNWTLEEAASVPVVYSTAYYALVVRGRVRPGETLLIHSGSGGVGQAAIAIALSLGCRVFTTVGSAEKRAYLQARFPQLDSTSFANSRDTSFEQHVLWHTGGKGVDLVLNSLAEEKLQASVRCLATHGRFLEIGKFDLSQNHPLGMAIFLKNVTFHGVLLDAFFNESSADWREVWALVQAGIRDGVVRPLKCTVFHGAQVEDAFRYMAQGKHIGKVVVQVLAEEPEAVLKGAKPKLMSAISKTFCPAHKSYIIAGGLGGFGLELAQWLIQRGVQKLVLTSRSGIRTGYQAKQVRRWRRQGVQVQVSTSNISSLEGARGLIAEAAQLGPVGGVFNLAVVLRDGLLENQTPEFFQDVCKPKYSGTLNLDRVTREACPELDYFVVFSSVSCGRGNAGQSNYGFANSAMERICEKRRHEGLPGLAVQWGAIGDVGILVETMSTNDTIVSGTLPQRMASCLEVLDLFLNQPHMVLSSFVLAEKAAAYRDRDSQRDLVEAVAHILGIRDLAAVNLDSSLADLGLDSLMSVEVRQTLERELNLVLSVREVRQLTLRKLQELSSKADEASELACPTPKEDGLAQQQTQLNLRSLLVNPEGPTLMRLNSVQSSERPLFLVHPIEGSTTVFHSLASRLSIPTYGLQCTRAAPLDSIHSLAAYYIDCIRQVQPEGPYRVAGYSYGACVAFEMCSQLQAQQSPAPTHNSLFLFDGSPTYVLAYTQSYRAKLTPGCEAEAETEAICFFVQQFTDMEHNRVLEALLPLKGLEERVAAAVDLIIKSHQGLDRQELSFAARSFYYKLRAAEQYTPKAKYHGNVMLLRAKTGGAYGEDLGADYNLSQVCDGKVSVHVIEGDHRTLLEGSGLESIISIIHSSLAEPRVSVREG
UniProt Q9UNQ0, whole entry: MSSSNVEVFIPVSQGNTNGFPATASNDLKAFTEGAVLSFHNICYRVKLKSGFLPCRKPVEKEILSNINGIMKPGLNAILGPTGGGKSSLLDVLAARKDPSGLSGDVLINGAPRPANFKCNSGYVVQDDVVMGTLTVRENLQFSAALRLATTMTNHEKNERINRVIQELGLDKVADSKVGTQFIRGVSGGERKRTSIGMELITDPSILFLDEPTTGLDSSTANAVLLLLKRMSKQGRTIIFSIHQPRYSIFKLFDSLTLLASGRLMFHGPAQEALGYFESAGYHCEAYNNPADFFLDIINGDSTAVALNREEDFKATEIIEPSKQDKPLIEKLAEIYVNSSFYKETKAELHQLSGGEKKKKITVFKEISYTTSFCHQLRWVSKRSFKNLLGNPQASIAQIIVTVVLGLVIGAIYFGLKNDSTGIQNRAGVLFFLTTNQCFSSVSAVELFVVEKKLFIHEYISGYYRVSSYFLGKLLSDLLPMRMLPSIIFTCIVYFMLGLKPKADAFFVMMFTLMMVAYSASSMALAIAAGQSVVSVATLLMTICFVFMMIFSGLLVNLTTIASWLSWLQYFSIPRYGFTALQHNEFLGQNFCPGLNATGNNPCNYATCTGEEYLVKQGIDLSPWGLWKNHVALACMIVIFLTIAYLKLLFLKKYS

This is a selection; strong and weak results do not stand in their true shares. Calls of active or inactive are those of the source. Rule for the calls: active = hit-call score of the fitted dose curve at least 0.9, where 1 is the maximum; inactive = score below 0.9.

Assay [1] can be described thus: CEETOX_H295R_PROG: CeeTox H295R High-throughput Steroidogenesis Assay for Progesterone (PROG) (AID 2283442).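 For AC50: human H295R adrenal cells primed with 10 µM forskolin before dosing.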 Particulars: actives raise or lower the signal. In a few lines: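 H295R adrenal cells prestimulated 48 h with 10 uM forskolin, then exposed 48 h to test chemical in 0.1% DMSO. Progesterone in medium quantified by HPLC-MS/MS after MTBE extraction; viability checked by MTT in same wells.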

Read-out in assay [2]: Tumor necrosis factor receptor superfamily member 6 (Homo sapiens) (UniProt P25445)
Nature of the assay: LTEA_HepaRG_FAS: Life Technologies and Expression Analysis (LTEA) Assay for Fas cell surface death receptor (FAS) using HepaRG (AID 2283447). Particulars: actives raise or lower the signal; mRNA level, 48 h. In a few lines: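 FAS transcript level was measured by TaqMan qRT-PCR against three housekeeping genes after 48 h chemical exposure. Cells were HepaRG, 0.5% DMSO vehicle, with a top concentration of 100 uM and half-log dilutions over eight points, in duplicate.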

Read-out in assay [3]: Fatty acid synthase (Homo sapiens) (UniProt P49327)
Put plainly: LTEA_HepaRG_FASN: Life Technologies and Expression Analysis (LTEA) Assay for Fatty Acid Synthase (FASN) using HepaRG (AID 2283448). Particulars: actives raise or lower the signal; mRNA level, 48 h. In short, it runs like this: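 FASN transcript measured by TaqMan qRT-PCR, normalised to three housekeeping genes, after 48 h chemical exposure of HepaRG cells. Eight-point half-log series from 100 uM in 0.5% DMSO, duplicates; gain or loss fitted against vehicle.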

Read-out in assay [4]: Cyclin D2 (CCND2), CCND2 (gene 894)
Nature of the assay: LTEA_HepaRG_CCND2: Life Technologies and Expression Analysis (LTEA) Assay for Cyclin D2 (CCND2) using HepaRG (AID 2283449). The following applies: actives raise or lower the signal; mRNA level, 48 h. In short, it runs like this: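 CCND2 transcript levels, quantified by qRT-PCR and normalised to three housekeeping genes, were fitted bidirectionally against 0.5% DMSO. HepaRG cultures were dosed 48 h in duplicate with an 8-point half-log series up to 100 uM.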

Read-out in assay [5]: Cyclin Dependent Kinase Inhibitor 1A (CDKN1A), CDKN1A (gene 1026)
Nature of the assay: LTEA_HepaRG_CDKN1A: Life Technologies and Expression Analysis (LTEA) Assay for Cyclin Dependent Kinase Inhibitor 1A (CDKN1A) using HepaRG (AID 2283450). Particulars: actives raise or lower the signal; mRNA level, 48 h. In a few lines:
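Differentiated HepaRG cells in serum-free induction medium, exposed 48 h in duplicate to eight half-log concentrations up to 100 uM in 0.5% DMSO. mRNA measured by TaqMan qRT-PCR, normalized to ACTB, GAPDH, POLR2A; bidirectional fit versus DMSO.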

Read-out in assay [6]: Cyclin D1 (CCND1), CCND1 (gene 595)
Nature of the assay: LTEA_HepaRG_CCND1: Life Technologies and Expression Analysis (LTEA) Assay for Cyclin D1 (CCND1) using HepaRG (AID 2283451). The following applies: actives raise or lower the signal; mRNA level, 48 h. In short, it runs like this:
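Differentiated HepaRG cells exposed 48 h in serum-free induction medium to eight half-log concentrations from 100 uM top, 0.5% DMSO, duplicates. CCND1 mRNA measured by Fluidigm TaqMan qRT-PCR, normalised to ACTB, GAPDH, POLR2A; bidirectional fit.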

Read-out in assay [7]: catalase (CAT), CAT (gene 847)
Nature of the assay: LTEA_HepaRG_CAT: Life Technologies and Expression Analysis (LTEA) Assay for catalase (CAT) using HepaRG (AID 2283452). Particulars: actives raise or lower the signal; mRNA level, 48 h. In short, it runs like this:
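Expression of CAT was quantified by TaqMan qRT-PCR with ACTB/GAPDH/POLR2A normalization after 48 h chemical exposure of HepaRG. Eight-point half-log series, top 100 uM, in 0.5% DMSO; gain or loss fitted against vehicle.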

Read-out in assay [8]: flavin-containing dimethylaniline monooxygenases 3 (FMO3), FMO3 (gene 2328)
Nature of the assay: LTEA_HepaRG_FMO3: Life Technologies and Expression Analysis (LTEA) Assay for flavin-containing dimethylaniline monooxygenases 3 (FMO3) using HepaRG (AID 2283453). The following applies: actives raise or lower the signal; mRNA level, 48 h. In short, it runs like this:
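FMO3 transcript quantified by TaqMan qRT-PCR against three housekeeping genes after 48 h chemical exposure of HepaRG cells. Eight-point half-log series, top 100 uM, 0.5% DMSO vehicle; phenobarbital 1mM induction control; up- or down-regulation fitted.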

Read-out in assay [9]: Cytochrome P450 (CYP1A1), CYP1A1 (gene 1543)
Put plainly: LTEA_HepaRG_CYP1A1: Life Technologies and Expression Analysis (LTEA) Assay for Cytochrome P450 (CYP1A1) using HepaRG (AID 2283454). The following applies: actives raise or lower the signal; mRNA level, 48 h. In short, it runs like this: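 Differentiated human HepaRG cells, after 48 h plating, exposed in duplicate for 48 h in serum-free induction medium to 8 half-log concentrations up to 100 uM in 0.5% DMSO. CYP1A1 mRNA by qRT-PCR, normalized to ACTB/GAPDH/POLR2A; bidirectional fit versus DMSO.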

Read-out in assay [10]: CFLAR gene, CFLAR (gene 8837)
Nature of the assay: LTEA_HepaRG_CFLAR: Life Technologies and Expression Analysis (LTEA) Assay for CFLAR gene using HepaRG (AID 2283455). The following applies: actives raise or lower the signal; mRNA level, 48 h. In a few lines: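 Transcript level by qRT-PCR (normalized to ACTB, GAPDH and POLR2A) after 48 h chemical exposure of HepaRG cells, top concentration 100 uM with half-log steps, 0.5% DMSO vehicle, duplicates; fitted bidirectionally against DMSO baseline.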

Read-out in assay [11]: Forkhead box O1 (FOXO1), FOXO1 (gene 2308)
Put plainly: LTEA_HepaRG_FOXO1: Life Technologies and Expression Analysis (LTEA) Assay for Forkhead box O1 (FOXO1) using HepaRG (AID 2283456). The following applies: actives raise or lower the signal; mRNA level, 48 h. In a few lines: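 FOXO1 transcript quantified by qRT-PCR after 48 h chemical exposure (top 100 uM, half-log steps, 0.5% DMSO) of HepaRG cells, housekeeping-normalized (ACTB/GAPDH/POLR2A). Changes fitted in both directions relative to vehicle.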

A short description of assay [12]: CEETOX_H295R_TESTO: CeeTox H295R High-throughput Steroidogenesis Assay for Testosterone (TESTO) (AID 2283457). The following applies: actives raise or lower the signal. In short, it runs like this:
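H295R adrenal cells, passage ≤10, exposed to chemicals for 48 h. Testosterone in medium measured by MTBE extraction and HPLC-MS/MS against a 7-point standard curve. Bidirectional fit versus DMSO; MTT viability checked in the same wells.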

Read-out in assay [13]: growth arrest and DNA damage 45 (GADD45A), GADD45A (gene 1647)
Nature of the assay: LTEA_HepaRG_GADD45A: Life Technologies and Expression Analysis (LTEA) Assay for growth arrest and DNA damage 45 (GADD45A) using HepaRG (AID 2283458). The following applies: actives raise or lower the signal; mRNA level, 48 h. In short, it runs like this:
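GADD45A expression was measured by TaqMan qRT-PCR against three housekeeping genes (ACTB, GAPDH, POLR2A) after 48 h treatment of HepaRG cells. Eight-point half-log series up to 100 uM in 0.5% DMSO, run in duplicate.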

Read-out in assay [14]: Forkhead box O3 (FOXO3), FOXO3 (gene 2309)
Put plainly: LTEA_HepaRG_FOXO3: Life Technologies and Expression Analysis (LTEA) Assay for Forkhead box O3 (FOXO3) using HepaRG (AID 2283459). The following applies: actives raise or lower the signal; mRNA level, 48 h. In a few lines:
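FOXO3 transcript measured by qRT-PCR (normalized to ACTB, GAPDH, POLR2A) after 48 h exposure of HepaRG cells in serum-free induction medium. Duplicates, eight half-log concentrations up to 100 uM, 0.5% DMSO; gain or loss fitted against DMSO.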

Read-out in assay [15]: ABC Transporter (ABCB1), ABCB1 (gene 5243)
Nature of the assay: LTEA_HepaRG_ABCB1: Life Technologies and Expression Analysis (LTEA) Assay for ABC Transporter (ABCB1) using HepaRG (AID 2283460). The following applies: actives raise or lower the signal; mRNA level, 48 h. In short, it runs like this: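 ABCB1 transcript level measured by TaqMan qRT-PCR against three housekeeping genes after 48 h chemical exposure of differentiated HepaRG cells. Top concentration 100 uM, half-log steps, eight points, 0.5% DMSO vehicle; bidirectional fit relative to DMSO.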

Read-out in assay [16]: growth arrest and DNA damage 45 (GADD45B), GADD45B (gene 4616)
Put plainly: LTEA_HepaRG_GADD45B: Life Technologies and Expression Analysis (LTEA) Assay for growth arrest and DNA damage 45 (GADD45B) using HepaRG (AID 2283461). The following applies: actives raise or lower the signal; mRNA level, 48 h. In short, it runs like this:
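Differentiated human HepaRG cells in serum-free induction medium exposed 48 h in duplicate to eight concentrations, top 100 uM, half-log steps, 0.5% DMSO. GADD45B mRNA by TaqMan qRT-PCR, normalized to ACTB, GAPDH, POLR2A; bidirectional fit versus DMSO.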

Read-out in assay [17]: ABC Transporter (ABCC3), ABCC3 (gene 8714)
Nature of the assay: LTEA_HepaRG_ABCC3: Life Technologies and Expression Analysis (LTEA) Assay for ABC Transporter (ABCC3) using HepaRG (AID 2283462). The following applies: actives raise or lower the signal; mRNA level, 48 h. In a few lines: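 Differentiated human HepaRG cells exposed 48 h in serum-free induction medium, 0.5% DMSO vehicle, 8-point half-log series to 100 uM in duplicate. ABCC3 mRNA by qRT-PCR, normalised to ACTB, GAPDH, POLR2A; bidirectional fit vs DMSO.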

Read-out in assay [18]: ABC Transporter (ABCB11), ABCB11 (gene 8647)
Put plainly: LTEA_HepaRG_ABCB11: Life Technologies and Expression Analysis (LTEA) Assay for ABC Transporter (ABCB11) using HepaRG (AID 2283463). Particulars: actives raise or lower the signal; mRNA level, 48 h. In short, it runs like this:
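ABCB11 transcript levels quantified by TaqMan qRT-PCR against three housekeeping genes after 48 h chemical exposure of HepaRG cultures. Concentrations up to 100 uM in half-log steps, 0.5% DMSO vehicle; both induction and suppression scored.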

Read-out in assay [19]: ABC Transporter (ABCC2), ABCC2 (gene 1244)
Nature of the assay: LTEA_HepaRG_ABCC2: Life Technologies and Expression Analysis (LTEA) Assay for ABC Transporter (ABCC2) using HepaRG (AID 2283464). The following applies: actives raise or lower the signal; mRNA level, 48 h. In short, it runs like this: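 Differentiated HepaRG cells in serum-free induction medium exposed 48 h to eight half-log concentrations up to 100 uM, 0.5% DMSO, in duplicate. ABCC2 mRNA measured by qRT-PCR (TaqMan, Fluidigm), normalized to ACTB, GAPDH and POLR2A. Fitted in both directions against DMSO.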

Read-out in assay [20]: Broad substrate specificity ATP-binding cassette transporter ABCG2 (Homo sapiens) (UniProt Q9UNQ0)
Nature of the assay: LTEA_HepaRG_ABCG2: Life Technologies and Expression Analysis (LTEA) Assay for ABC Transporter (ABCG2) using HepaRG (AID 2283465). Particulars: actives raise or lower the signal; mRNA level, 48 h. In short, it runs like this: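 ABCG2 transcript was quantified by TaqMan qRT-PCR against three housekeeping genes in HepaRG cells. Cells were treated in duplicate for 48 h across an 8-point half-log series up to 100 uM, with 0.5% DMSO vehicle. Gain or loss versus DMSO was fit.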

As for `Cc1c([N+](=O)[O-])cccc1[N+](=O)[O-]`, the compound was classed as inactive in assay [1], in [2], in assay [3], in [4], in assay [5] and in [6]. For the same compound, the result in [7], in [8], in [9], in assay [10], in [11] and in assay [12] was inactive. For the same compound, the outcome in assay [13], in assay [14], in assay [15], in assay [16], in [17] and in assay [18] was inactive. For the same compound, the result in [19] and in assay [20] was inactive.
In general, AC50 refers to the concentration at which the activity in the assay is half-maximal. For the compound `Cc1cccc([N+](=O)[O-])c1[N+](=O)[O-]`, the AC50 in assay [1] was active: 3.13 µM; in assay [9], active: 35.8 µM. Besides, the result in [2], in [3], in assay [4], in assay [5], in assay [6] and in assay [7] was inactive. Further, the call in assay [8], in assay [10], in [11], in assay [12], in [13] and in assay [14] was inactive. In addition, the result in assay [15], in assay [16], in assay [17], in assay [18], in assay [19] and in assay [20] was inactive.
